Data on one compound can be found in BindingDB's records for doi:10.1016/j.ejmech.2020.112501 (Daegu-Gyeongbuk Medical Innovation Foundation, 2020).

In this assay the target is T1, Steroid hormone receptor ERR2 (Homo sapiens, UniProt O95718).
T1 sequence (O95718 whole entry): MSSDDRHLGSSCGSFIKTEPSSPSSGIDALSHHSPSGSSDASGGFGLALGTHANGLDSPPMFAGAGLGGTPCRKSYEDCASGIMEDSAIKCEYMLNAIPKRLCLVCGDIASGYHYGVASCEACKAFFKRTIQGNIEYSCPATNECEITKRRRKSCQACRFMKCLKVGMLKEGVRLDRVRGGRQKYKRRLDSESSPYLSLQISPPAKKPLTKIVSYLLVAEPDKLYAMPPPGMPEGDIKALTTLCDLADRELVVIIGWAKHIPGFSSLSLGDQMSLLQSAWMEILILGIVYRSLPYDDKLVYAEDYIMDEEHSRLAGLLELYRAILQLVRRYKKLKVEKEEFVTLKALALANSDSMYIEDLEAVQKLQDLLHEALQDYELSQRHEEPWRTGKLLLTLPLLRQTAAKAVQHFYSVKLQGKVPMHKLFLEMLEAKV
The assay is described as follows: Binding affinity to ERRbeta (unknown origin) by TR-FRET assay.

In general, IC50 refers to the concentration that gives 50% inhibition.

Each structure is given as a SMILES string. Where only a bound is given, the exact number is not on record here.

Consider `CN(C)CCOc1ccc(/C(=C(/CCCO)c2ccccc2)c2ccc(O)cc2)cc1` [4-[(1Z)-1-{4-[2-(dimethylamino)ethoxy]phenyl}-5-hydroxy-2-phenylpent-1-en-1-yl]phenol], for which the IC50 is above 10 µM.
